Measured values from patent US20250109201A1 (AGENUS, published 2025).

Chains of the proteins cited; added tags and fusions are not shown. Lines headed by an entry give the natural chain unless they say otherwise; changes in a name come on top. A line that says so, or that is headed by a name, gives the form on record, which may keep a tag or linker. Residues count along the entry.
UniProt O75019, 17-461 limits assumed: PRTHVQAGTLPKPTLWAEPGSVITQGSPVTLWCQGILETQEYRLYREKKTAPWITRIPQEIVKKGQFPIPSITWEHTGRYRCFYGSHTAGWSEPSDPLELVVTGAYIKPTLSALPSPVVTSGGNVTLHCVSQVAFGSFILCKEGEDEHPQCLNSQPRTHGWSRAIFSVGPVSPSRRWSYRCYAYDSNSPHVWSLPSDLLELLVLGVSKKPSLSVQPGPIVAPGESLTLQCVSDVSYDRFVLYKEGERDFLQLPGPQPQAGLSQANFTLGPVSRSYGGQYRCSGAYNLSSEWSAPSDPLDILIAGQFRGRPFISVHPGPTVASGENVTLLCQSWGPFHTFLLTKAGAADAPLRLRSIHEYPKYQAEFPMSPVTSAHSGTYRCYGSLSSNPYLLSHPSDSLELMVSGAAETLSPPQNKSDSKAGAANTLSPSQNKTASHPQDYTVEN
UniProt Q8N149, 24-449 limits assumed: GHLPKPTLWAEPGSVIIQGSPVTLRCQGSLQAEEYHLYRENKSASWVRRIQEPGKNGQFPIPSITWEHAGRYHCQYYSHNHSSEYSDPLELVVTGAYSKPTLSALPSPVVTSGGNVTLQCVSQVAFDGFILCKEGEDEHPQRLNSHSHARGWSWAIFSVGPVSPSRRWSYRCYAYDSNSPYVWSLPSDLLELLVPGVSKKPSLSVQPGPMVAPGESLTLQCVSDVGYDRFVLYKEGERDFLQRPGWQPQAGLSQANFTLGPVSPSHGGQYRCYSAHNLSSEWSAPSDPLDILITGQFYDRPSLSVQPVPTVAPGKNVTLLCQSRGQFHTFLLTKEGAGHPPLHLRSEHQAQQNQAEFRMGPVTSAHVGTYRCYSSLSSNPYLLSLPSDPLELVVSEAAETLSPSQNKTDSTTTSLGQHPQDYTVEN
UniProt P59901, 24-446 limits assumed: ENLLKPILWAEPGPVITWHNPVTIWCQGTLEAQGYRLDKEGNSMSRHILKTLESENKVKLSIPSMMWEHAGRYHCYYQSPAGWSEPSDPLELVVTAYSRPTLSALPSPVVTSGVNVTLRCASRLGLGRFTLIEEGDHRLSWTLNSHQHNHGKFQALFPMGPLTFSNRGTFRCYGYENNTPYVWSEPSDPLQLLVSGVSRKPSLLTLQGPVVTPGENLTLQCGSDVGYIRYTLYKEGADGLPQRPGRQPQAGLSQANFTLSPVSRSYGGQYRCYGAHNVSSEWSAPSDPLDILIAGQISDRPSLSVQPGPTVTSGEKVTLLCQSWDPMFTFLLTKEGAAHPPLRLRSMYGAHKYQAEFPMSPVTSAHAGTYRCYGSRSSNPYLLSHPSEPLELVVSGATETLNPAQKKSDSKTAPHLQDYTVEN
UniProt A6NI73, 42-268 limits assumed: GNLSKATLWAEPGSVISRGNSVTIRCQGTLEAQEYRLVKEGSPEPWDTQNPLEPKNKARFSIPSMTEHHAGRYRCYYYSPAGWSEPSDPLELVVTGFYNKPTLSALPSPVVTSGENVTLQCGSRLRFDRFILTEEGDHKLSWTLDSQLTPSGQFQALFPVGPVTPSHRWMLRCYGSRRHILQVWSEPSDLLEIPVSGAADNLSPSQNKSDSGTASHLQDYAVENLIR
UniProt Q6PI73, 24-447 limits assumed: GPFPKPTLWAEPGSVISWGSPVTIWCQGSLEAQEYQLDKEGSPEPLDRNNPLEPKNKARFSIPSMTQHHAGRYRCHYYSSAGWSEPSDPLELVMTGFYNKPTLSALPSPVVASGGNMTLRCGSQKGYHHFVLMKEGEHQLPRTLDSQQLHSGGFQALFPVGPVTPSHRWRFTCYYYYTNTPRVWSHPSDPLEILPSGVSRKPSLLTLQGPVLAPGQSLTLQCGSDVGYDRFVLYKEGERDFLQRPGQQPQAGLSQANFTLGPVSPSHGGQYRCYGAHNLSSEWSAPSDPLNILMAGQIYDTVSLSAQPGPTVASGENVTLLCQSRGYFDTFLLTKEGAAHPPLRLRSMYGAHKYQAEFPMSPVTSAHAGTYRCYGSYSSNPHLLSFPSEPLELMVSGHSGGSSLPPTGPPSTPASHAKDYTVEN
UniProt Q8N423, 22-458 limits assumed: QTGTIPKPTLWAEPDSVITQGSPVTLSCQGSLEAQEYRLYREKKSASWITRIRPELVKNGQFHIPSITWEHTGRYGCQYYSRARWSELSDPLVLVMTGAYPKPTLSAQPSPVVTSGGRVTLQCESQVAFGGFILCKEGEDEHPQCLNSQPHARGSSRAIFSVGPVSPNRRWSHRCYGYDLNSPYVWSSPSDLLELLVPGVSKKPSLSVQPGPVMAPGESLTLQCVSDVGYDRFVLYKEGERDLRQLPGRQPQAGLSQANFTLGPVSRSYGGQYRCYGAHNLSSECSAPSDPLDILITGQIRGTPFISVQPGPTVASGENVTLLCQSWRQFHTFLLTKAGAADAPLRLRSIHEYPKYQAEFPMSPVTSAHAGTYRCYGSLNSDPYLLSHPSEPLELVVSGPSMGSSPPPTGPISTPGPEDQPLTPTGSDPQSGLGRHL
UniProt O75023, 24-458 limits assumed: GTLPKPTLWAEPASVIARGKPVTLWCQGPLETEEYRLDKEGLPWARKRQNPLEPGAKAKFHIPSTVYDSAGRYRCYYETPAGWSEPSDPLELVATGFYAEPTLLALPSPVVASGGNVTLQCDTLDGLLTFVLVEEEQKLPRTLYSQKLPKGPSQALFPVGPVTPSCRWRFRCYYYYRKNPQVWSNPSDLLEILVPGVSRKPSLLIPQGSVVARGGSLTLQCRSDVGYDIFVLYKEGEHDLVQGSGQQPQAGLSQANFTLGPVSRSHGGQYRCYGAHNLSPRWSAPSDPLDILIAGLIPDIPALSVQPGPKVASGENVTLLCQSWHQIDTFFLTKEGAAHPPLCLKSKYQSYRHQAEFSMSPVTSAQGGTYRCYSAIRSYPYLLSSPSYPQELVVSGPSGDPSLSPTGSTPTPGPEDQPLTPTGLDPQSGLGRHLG
ECD-His tagged human ILT2 haplotype PE02, UniProt Q8NHL6, other isoform, or with tags, fused parts or gaps: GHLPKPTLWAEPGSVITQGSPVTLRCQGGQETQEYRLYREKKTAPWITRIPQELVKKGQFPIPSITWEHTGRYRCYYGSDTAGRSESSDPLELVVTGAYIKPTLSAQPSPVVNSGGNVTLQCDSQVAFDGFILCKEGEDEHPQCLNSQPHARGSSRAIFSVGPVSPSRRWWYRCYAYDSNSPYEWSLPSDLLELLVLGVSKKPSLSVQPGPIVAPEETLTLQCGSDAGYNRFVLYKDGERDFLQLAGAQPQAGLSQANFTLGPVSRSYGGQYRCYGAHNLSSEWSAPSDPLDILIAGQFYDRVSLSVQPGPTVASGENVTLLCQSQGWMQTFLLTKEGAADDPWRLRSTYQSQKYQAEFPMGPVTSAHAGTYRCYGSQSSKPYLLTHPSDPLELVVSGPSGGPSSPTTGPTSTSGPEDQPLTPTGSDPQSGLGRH
ECD-His tagged human ILT2 haplotype PE03, UniProt Q8NHL6, other isoform, or with tags, fused parts or gaps: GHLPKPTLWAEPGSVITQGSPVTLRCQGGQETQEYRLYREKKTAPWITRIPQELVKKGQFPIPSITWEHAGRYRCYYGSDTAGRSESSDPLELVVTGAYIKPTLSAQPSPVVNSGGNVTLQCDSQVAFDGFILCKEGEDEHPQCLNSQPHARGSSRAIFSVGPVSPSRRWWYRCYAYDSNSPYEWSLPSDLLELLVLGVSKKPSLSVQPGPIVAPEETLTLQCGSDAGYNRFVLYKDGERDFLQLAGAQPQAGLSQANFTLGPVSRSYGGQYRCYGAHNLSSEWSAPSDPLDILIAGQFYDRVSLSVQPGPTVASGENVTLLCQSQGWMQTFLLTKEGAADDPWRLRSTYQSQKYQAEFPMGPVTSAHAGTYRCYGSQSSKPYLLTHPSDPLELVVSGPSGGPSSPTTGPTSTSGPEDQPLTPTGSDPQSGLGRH
UniProt Q8NHL6, 24-458: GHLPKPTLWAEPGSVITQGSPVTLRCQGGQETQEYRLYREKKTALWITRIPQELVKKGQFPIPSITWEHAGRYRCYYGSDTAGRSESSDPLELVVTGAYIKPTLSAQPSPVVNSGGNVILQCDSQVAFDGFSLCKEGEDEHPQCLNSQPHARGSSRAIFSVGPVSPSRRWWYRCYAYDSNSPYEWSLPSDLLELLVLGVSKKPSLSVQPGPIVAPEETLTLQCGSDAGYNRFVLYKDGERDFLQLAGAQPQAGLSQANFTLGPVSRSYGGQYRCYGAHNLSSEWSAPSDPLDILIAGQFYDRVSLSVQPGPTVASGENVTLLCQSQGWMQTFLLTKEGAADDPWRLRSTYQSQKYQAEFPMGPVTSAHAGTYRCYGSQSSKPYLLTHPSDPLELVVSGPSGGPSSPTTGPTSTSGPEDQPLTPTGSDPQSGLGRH
UniProt Q8NHL6, 24-650: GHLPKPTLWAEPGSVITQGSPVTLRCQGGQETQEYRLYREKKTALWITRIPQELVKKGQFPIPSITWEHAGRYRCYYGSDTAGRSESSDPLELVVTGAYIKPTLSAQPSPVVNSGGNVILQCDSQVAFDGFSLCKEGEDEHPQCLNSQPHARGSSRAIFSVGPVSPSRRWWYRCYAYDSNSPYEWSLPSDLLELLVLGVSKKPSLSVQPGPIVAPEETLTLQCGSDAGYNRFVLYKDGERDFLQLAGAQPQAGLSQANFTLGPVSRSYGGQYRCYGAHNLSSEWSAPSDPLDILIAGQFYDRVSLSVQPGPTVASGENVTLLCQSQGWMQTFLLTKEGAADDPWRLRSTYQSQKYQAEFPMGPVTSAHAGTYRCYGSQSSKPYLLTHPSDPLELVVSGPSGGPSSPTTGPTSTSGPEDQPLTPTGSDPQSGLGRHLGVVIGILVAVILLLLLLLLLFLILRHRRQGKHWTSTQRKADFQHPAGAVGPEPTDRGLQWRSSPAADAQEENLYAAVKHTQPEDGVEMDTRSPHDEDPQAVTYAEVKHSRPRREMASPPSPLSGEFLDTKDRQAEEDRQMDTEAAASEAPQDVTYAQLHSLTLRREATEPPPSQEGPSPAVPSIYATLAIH
UniProt Q8NHL6, 24-482 limits assumed: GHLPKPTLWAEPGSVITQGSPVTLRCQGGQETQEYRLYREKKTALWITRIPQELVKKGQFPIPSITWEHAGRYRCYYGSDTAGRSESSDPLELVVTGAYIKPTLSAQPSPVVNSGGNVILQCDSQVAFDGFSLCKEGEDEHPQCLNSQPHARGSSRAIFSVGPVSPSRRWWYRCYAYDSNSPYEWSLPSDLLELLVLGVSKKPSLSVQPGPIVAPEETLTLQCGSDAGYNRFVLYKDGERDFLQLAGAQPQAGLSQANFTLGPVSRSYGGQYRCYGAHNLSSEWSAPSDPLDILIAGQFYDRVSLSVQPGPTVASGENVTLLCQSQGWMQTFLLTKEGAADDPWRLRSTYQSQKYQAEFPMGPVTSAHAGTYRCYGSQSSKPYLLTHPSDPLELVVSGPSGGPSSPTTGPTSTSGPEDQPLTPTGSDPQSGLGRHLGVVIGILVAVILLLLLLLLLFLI
ECD-His tagged African green monkey (AGM) ILT2 orthologue protein, one chain, as listed by the source: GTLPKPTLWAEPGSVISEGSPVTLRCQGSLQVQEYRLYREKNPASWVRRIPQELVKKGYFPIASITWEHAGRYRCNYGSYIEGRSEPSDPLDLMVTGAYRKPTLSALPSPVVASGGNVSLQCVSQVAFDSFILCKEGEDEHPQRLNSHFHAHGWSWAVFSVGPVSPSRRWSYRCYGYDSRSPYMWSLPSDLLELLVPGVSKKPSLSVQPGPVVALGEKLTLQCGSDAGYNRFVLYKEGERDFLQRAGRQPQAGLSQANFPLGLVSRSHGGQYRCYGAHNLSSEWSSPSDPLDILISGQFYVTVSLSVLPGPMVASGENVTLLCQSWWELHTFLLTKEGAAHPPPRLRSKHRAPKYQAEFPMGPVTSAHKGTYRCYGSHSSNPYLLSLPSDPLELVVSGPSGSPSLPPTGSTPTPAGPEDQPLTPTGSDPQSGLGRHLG

What was measured:
[1] = biological target: T1, recombinant human LILRA1/LIR-6 (Sino Biological 17220-H08H-100) (human, UniProt O75019); test: SPR
T1 construct: Bought
Protocol: (§1) Briefly, SPR experiments were performed using a Biacore T200 instrument, and the association rate (Kₐ), dissociation rate (Kd), and dissociation constant (KD) were calculated from each experiment using a 1:1 binding model with Biacore™ T200 Evaluation Software. Capture of antibodies from the Human Fab Capture kit (28958325, GE Healthcare) to the Series S CM5 sensor chip (29149603, GE Healthcare) was performed using the immobilization wizard for amine coupling from the Biacore™ control panel and following the manufacturer's recommendations included with the kit.

[2] = biological target: T2, recombinant human LILRA2/ILT1 (R&D Systems 9040-T4-050) (human, UniProt Q8N149); test: SPR
T2 construct: Bought
Protocol: as §1

[3] = biological target: T3, recombinant human LILRA4/ILT7 (Sino Biological 16058-H08H-50) (human, UniProt P59901, in part); test: SPR
T3 construct: Bought
Protocol: as §1

[4] = biological target: T4, recombinant human LILRA5/ILT11 (Sino Biological 16059-H08H-100) (human, UniProt A6NI73, in part); test: SPR
T4 construct: Bought
Protocol: as §1

[5] = biological target: T5, recombinant human LILRA6/ILT8 (Sino Biological 29813-H08H-50) (human, UniProt Q6PI73); test: SPR
T5 construct: Bought
Protocol: as §1

[6] = biological target: T6, recombinant human LILRB2/ILT4 (R&D Systems 8429-T4-050) (human, UniProt Q8N423, in part); test: SPR
T6 construct: Bought
Protocol: as §1

[7] = biological target: T7, recombinant human LILRB3/ILT5 (R&D Systems 9159-T5-050) (human, UniProt O75022, in part); test: SPR
T7 construct: Bought
Protocol: as §1

[8] = biological target: T8, recombinant human LILRB4/ILT3 (Sino Biological 16742-H08H) (human, UniProt Q8NHJ6, in part); test: SPR
T8 construct: Bought
Protocol: as §1

[9] = biological target: T9, recombinant human LILRB5/LIR-8 (Sino Biological 17221-H08H-100) (human, UniProt O75023, in part); test: SPR
T9 construct: Bought
Protocol: as §1

[10] = biological target: T10, ECD-His tagged cynomolgus monkey ILT2 orthologue protein, variant 1 (cynomolgus monkey); test: SPR
T10 construct: also called Cyno ILT2 variant 1; not shown: His tag

[11] = biological target: T11, ECD-His tagged cynomolgus monkey ILT2 orthologue protein, variant 2 (cynomolgus monkey); test: SPR
T11 construct: also called Cyno ILT2 variant 2; not shown: His tag

[12] = biological target: T12, ECD-His tagged rhesus monkey ILT2 orthologue protein, variant 1 (rhesus monkey); test: SPR
T12 construct: also called Rhesus ILT2 variant 1; not shown: His tag

[13] = biological target: T13, ECD-His tagged rhesus monkey ILT2 orthologue protein, variant 2 (rhesus monkey); test: SPR
T13 construct: also called Rhesus ILT2 variant 2; not shown: His tag

[14] = biological target: T14, ECD-His tagged African green monkey (AGM) ILT2 orthologue protein (African green monkey); test: SPR
T14 construct: also called African Green Monkey ILT2 ECD; not shown: His tag

[15] = biological target: T15, ECD-His tagged mouse PirB protein (R&D Systems, 2754PB050) (mouse, UniProt P97484 25-642); test: SPR
T15 construct: extracellular domain; Bought; not shown: His tag
T15 sequence (looked up): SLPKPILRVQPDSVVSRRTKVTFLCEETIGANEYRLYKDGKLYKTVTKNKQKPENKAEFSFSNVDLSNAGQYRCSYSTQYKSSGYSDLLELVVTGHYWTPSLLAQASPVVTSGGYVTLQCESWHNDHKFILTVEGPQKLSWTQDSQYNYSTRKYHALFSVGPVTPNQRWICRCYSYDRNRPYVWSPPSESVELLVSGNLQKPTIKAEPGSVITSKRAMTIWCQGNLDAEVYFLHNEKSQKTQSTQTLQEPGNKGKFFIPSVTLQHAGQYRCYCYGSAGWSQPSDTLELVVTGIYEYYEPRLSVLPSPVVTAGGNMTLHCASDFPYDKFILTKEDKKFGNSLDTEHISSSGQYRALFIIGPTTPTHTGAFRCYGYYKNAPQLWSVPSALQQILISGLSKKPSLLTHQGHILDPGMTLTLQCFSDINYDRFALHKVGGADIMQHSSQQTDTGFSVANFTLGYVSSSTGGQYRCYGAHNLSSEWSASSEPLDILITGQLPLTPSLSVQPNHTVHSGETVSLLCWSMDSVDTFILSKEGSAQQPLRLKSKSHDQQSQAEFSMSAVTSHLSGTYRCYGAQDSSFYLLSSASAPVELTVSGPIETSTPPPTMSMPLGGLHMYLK

[16] = biological target: T16, ECD-His tagged human ILT2 haplotype PE02 (human, UniProt Q8NHL6, in part); test: SPR, ILT2 ECD-His
T16 construct: also called Human ILT2 PE02 ECD; not shown: His tag
Protocol: as §1

[17] = biological target: T17, ECD-His tagged human ILT2 haplotype PE03 (human, UniProt Q8NHL6, in part); test: SPR, ILT2 ECD-His
T17 construct: also called Human ILT2 PE03 ECD (Sino biological, 16014-H08H); not shown: His tag
Protocol: as §1

[18] = biological target: T18, ECD-His tagged human ILT2 haplotype PE01 (human, UniProt Q8NHL6, in part); test: SPR, LILR family panel
T18 construct: also called Human ILT2 PE01 ECD; LILRB1/ILT2 PE01; not shown: His tag
Protocol: as §1

[19] = biological target: full-length ILT2 expressed on Jurkat cells (human, UniProt Q8NHL6); test: cell-based or functional assay
[20] = biological target: T19, ECD-His tagged cynomolgus monkey ILT2 orthologue protein, variant 3 (cynomolgus monkey); test: SPR, ECD-His tagged receptor
T19 construct: also called Cyno ILT2 variant 3; not shown: His tag
Protocol: as §1

[21] = biological target: T20, human ILT2 extracellular and transmembrane domains expressed on CHO cells (human, UniProt Q8NHL6, in part); test: flow cytometry, CHO cells with high human ILT2
T20 construct: domain: extracellular and transmembrane domains; which one is told under assay; also called CHO cells expressing human ILT2 (relatively low or relatively high level); CHO-ILT2 cells
Protocol: For the antibody binding assay, the cells were seeded in a 96-well U-bottom tissue culture plate at a density of 3×10⁵ cells per well in 25 μL of PBS supplemented with 0.5% BSA, 1 mM EDTA and 0.05% sodium azide (FACS Buffer). The cells were incubated for 30 minutes at 4° C. with […] of a series dilution of anti-ILT2 antibodies or isotype control at concentrations from 10 μg/mL to 2.4 ng/mL in FACS Buffer.
After a 30-minute incubation in the dark at 4° C., the cells were washed twice with cold FACS Buffer, and the cells were analyzed by flow cytometry (BD LSR Fortessa Flow Cytometer). CHO-ILT2 cells were identified and MFI was calculated as above.

[22] = biological target: T18, ECD-His tagged human ILT2 haplotype PE01; test: SPR, ILT2 PE01 ECD-His, average of two measurements
Protocol: as §1
Variants of irrelevant antibody VRC01 (with IgG1, IgG1 N297A, IgG4 S228P, IgG2, or IgG2 C127S constant regions) were used as negative isotype controls. The binding kinetics are shown in Table 5 as an average from two independent measurements.

binding result [1]: no binding | binding result [2]: no binding | binding result [3]: no binding | binding result [4]: no binding | binding result [5]: no binding | binding result [6]: no binding | binding result [7]: no binding | binding result [8]: no binding | binding result [9]: no binding | binding result [10]: no binding | binding result [11]: no binding | binding result [12]: no binding | binding result [13]: no binding | binding result [14]: no binding | binding result [15]: no binding | Kd [16]: 0.48 nM | koff [16]: 0.00023 s⁻¹ | kon [16]: 480000 M⁻¹ s⁻¹ | Kd [17]: 0.66 nM | koff [17]: 0.00029 s⁻¹ | kon [17]: 440000 M⁻¹ s⁻¹ | Kd [18]: 0.45 nM | koff [18]: 0.00021 s⁻¹ | kon [18]: 460000 M⁻¹ s⁻¹ | FcγRIIIa-NFAT luciferase signaling, Average AUC normalized to HP-F1 [19]: 143 | FcγRIIIa-NFAT luciferase signaling, EC50 [19]: 32.8 µg/mL | Kd [20]: 2800 nM | AUC [21]: 361000 | EC50 [21]: 0.141 µg/mL | Kd [22]: 0.2 nM | koff [22]: 7.3e-05 s⁻¹ | kon [22]: 370000 M⁻¹ s⁻¹
B1: BA221 (antibody, human IgG4 S228P, kappa)
heavy: QVQLVQSGAEVKKPGASVKVSCKASGYTFNRYYMHWVRQAPGQGLEWMGWINPYTGGTNYAQKFQGRVTMTRDTSISTAYMELSRLRSDDTAVYYCASKQPSSDYWGQGTLVTVSSASTKGPSVFPLAPCSRSTSESTAALGCLVKDYFPEPVTVSWNSGALTSGVHTFPAVLQSSGLYSLSSVVTVPSSSLGTKTYTCNVDHKPSNTKVDKRVESKYGPPCPPCPAPEFLGGPSVFLFPPKPKDTLMISRTPEVTCVVVDVSQEDPEVQFNWYVDGVEVHNAKTKPREEQFNSTYRVVSVLTVLHQDWLNGKEYKCKVSNKGLPSSIEKTISKAKGQPREPQVYTLPPSQEEMTKNQVSLTCLVKGFYPSDIAVEWESNGQPENNYKTTPPVLDSDGSFFLYSRLTVDKSRWQEGNVFSCSVMHEALHNHYTQKSLSLSLGK
light: DIVMTQSPLSLPVTPGEPASISCRSSQSLLHSNTYNYLDWYLQKPGQSPQLLIYLGSNRASGVPDRFSGSGSGTDFTLKISRVEAEDVGVYYCLQASQAPWTFGQGTKVEIKRTVAAPSVFIFPPSDEQLKSGTASVVCLLNNFYPREAKVQWKVDNALQSGNSQESVTEQDSKDSTYSLSSTLTLSKADYEKHKVYACEVTHQGLSSPVTKSFNRGEC
